## Measured melting point values of organic chemicals

Source: data files of OPERA 2.9 (Mansouri et al.), github.com/kmansouri/OPERA.

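The numbers are reported measurements, compiled and curated for the OPERA QSAR suite. A listed value is a point estimate from one report or more. Method, purity and exact conditions of the single measurements are not given. Where a salt, mixture or single isomer is drawn, the source does not say that exactly this form was tested. Unmarked limits or estimates from the upstream databases cannot be ruled out.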

Melting points are in °C. "n/a" marks a cell with nothing listed here. The databases behind each value are named after "via".

compound	name	melting point (°C)	via
O=C(O)CCc1nc2sc3c(c2c(=O)[nH]1)CCCC3	n/a	141	OCHEM
CO[C@@H]1C=CO[C@]2(C)Oc3c(C)c(O)c4c(c3C2=O)C(=N)C(N)=C(NC(=O)C(C)=CC=C[C@@H](C)[C@@H](O)[C@H](C)[C@H](O)[C@H](C)[C@@H](OC(C)=O)[C@H]1C)C4=O	n/a	155	eChemPortal
O=c1[nH]cn[nH]1	3H-1,2,4-Triazol-3-one, 1,2-dihydro-	236.5	eChemPortal
ClCc1nc(-c2cccc(Cl)c2)no1	5-(chloromethyl)-3-(3-chlorophenyl)-1,2,4-oxadiazole	40	OCHEM
COc1ccc(CN)c(F)c1F	2,3-Difluoro-4-methoxybenzylamine	33.5	OCHEM
O=CC1CO1 (configuration not stated)	Glycidaldehyde	-62	OCHEM, PubChem
CCOC(=O)OC1CCCCC1C(C)(C)C (configuration not stated)	2-tert-Butylcyclohexyl ethyl carbonate	-2	eChemPortal
C/C=C/C1CCC(C[P+](c2ccccc2)(c2ccccc2)c2ccccc2)CC1.[I-] (stereo partly drawn)	n/a	160	eChemPortal
Cc1ccc2cc(C=O)c(Cl)nc2c1	2-chloro-7-methylquinoline-3-carbaldehyde	149	OCHEM
CC(C)(C)c1cc(N)n(-c2cccc(Cl)c2)n1	3-tert-butyl-1-(3-chlorophenyl)-1H-pyrazol-5-amine	100	OCHEM
CC(=O)O[C@H]1CC[C@H]2[C@@H]3CCc4cc(O)ccc4[C@H]3CC[C@]12C	Estradiol 17beta-acetate	218	eChemPortal
O=C(CC(=O)Nc1ccccc1)Nc1ccccc1	Propanediamide, N,N'-diphenyl-	221	OCHEM
CCCCC(O)C(N)CC (configuration not stated)	4-Octanol, 3-amino-	21.5	eChemPortal
CC[N+](C)(C)Cc1ccccc1Br.Cc1ccc(S(=O)(=O)[O-])cc1	Bretylium tosylate	98	OCHEM
CN(C)S(=O)(=O)c1cccc(C(=O)O)c1	3-(Dimethylsulfamoyl)benzoic acid	148	OCHEM
COc1ccc(-c2noc(CCC(=O)O)n2)cc1	3-[3-(4-methoxyphenyl)-1,2,4-oxadiazol-5-yl]propanoic acid	142	OCHEM
Nc1ccc(C(=O)NCCO)cc1	4-amino-N-(2-hydroxyethyl)benzamide	116	OCHEM
C[C@H](CCC(=O)NCCS(=O)(=O)O)[C@H]1CC[C@H]2[C@@H]3CC[C@@H]4C[C@H](O)CC[C@]4(C)[C@H]3C[C@H](O)[C@]12C	Taurodesoxycholic acid	206	PubChem
Cn1c(=O)c2c(ncn2CCCC(=O)O)n(C)c1=O	n/a	168	OCHEM
Cc1ccn2cc(C(=O)O)nc2c1	7-methylimidazo[1,2-a]pyridine-2-carboxylic acid	227	OCHEM
Clc1ccc(Oc2c(Cl)c(Cl)c(Cl)c(Cl)c2Cl)cc1Cl	2,3,3',4,4',5,6-Heptachlorodiphenyl ether	169	QSARDB
Cn1c(CO)nc2ccccc21	(1-methyl-1H-benzimidazol-2-yl)methanol	145	OCHEM
CC(C)CC1N=C(O)N=C1O (configuration not stated)	2,4-IMIDAZOLIDINEDIONE, 5-(2-METHYLPROPYL)-	216	OCHEM
O=C(O)C/C=C/c1cccc2c1OCO2	(3E)-4-(1,3-Benzodioxol-4-yl)-3-butenoic acid	35	OCHEM
CCCCS(N)(=O)=O	1-Butanesulfonamide	44	OCHEM
CCCCCC(C)CO (configuration not stated)	2-Methylheptan-1-ol	-93	eChemPortal
CCc1ccc(C(=O)O)o1	5-ethyl-2-furoic acid	90	OCHEM
O=C(O)c1ccccc1Nc1ccc(SC(F)F)cc1	Anthranilic acid, N-(p-((difluoromethyl)thio)phenyl)-	117	OCHEM
CCCCC(CC)C(=O)OCC(COC(=O)C(CC)CCCC)(COC(=O)C(CC)CCCC)COC(=O)C(CC)CCCC (configuration not stated)	n/a	9	eChemPortal
Nc1ccc(N2CCOCC2)cc1C(=O)O	2-Amino-5-(4-morpholinyl)benzoic acid	236	OCHEM
Cc1cc(=S)nc(C(C)C)[nH]1	2-isopropyl-6-methylpyrimidine-4-thiol	162	OCHEM
Cn1cc([N+](=O)[O-])cc1C(=O)O	1-Methyl-4-nitro-1H-pyrrole-2-carboxylic acid	200	OCHEM
COc1cccc(Nc2nnc(SCC(=O)O)s2)c1	n/a	136	OCHEM
CC1(C)C(=O)N(CO)C(=O)N1CO	1,3-Dimethylol-5,5-dimethylhydantoin	90	PubChem, eChemPortal
Cc1ccc(N)cc1S(N)(=O)=O	5-Amino-2-methylbenzenesulfonamide	152	OCHEM
CCOC(=O)c1c(C)[nH]c(C(C)=O)c1C	n/a	116	OCHEM
CC(C)OC(=O)C(C(=O)OC(C)C)=C1SC=CS1	Malotilate	60.5	OCHEM
O=C(O)c1ccccc1OCc1ccccc1Cl	2-[(2-chlorobenzyl)oxy]benzoic acid	120	OCHEM
O=[N+]([O-])c1ccc(OCc2ccccc2)cc1	Benzene, 1-nitro-4-(phenylmethoxy)-	93	OCHEM
O=C(CCl)c1c(-c2ccc(F)cc2)[nH]c2ccccc12	2-Chloro-1-[2-(4-fluorophenyl)-1H-indol-3-yl]ethan-1-one	159	OCHEM
CCNc1n[nH]c(=S)s1	5-(ethylamino)-1,3,4-thiadiazole-2-thiol	142	OCHEM
O=C(O)c1cc(-c2cccc(Cl)c2)on1	5-(3-Chlorophenyl)-1,2-oxazole-3-carboxylic acid	176	OCHEM
CCc1cc2c(Cl)ncnc2s1	4-chloro-6-ethylthieno[2,3-d]pyrimidine	56	OCHEM
COCCCNC(=O)CC#N	2-cyano-N-(3-methoxypropyl)acetamide	64	OCHEM
C=C(C)COCC/C=C\CC	(3Z)-1-[(2-Methylprop-2-en-1-yl)oxy]hex-3-ene	-76	eChemPortal
C=C[C@H]1CC[C@H]([C@H]2CC[C@H](c3ccc(C)cc3)CC2)CC1	(Trans(Trans))-4'-vinyl-4-(4-methylphenyl)bicyclohexyl	66	eChemPortal
O=C(O)c1ccc2[nH]c(=O)[nH]c2c1	2-Oxo-2,3-dihydro-1H-benzimidazole-5-carboxylic acid	374	OCHEM
Oc1ccccc1C(=S)S	2-Hydroxydithiobenzoic acid	49	OCHEM
Nc1cc([N+](=O)[O-])cc(C(=O)O)c1O	3-Amino-5-nitrosalicylic acid	227	eChemPortal
CCOc1ccccc1-c1csc(N)n1	4-(2-ethoxyphenyl)-1,3-thiazol-2-amine	210	OCHEM
CSc1ccc(C)c(C(=O)O)c1	2-Methyl-5-(methylsulfanyl)benzoic acid	129	OCHEM
CCOC(=O)c1c(N)sc(-c2ccccc2)c1C	Ethyl 2-amino-4-methyl-5-phenylthiophene-3-carboxylate	95	OCHEM
Cl.OCCNc1ccc2c(c1)OCO2	Hydroxyethyl-3,4-methylenedioxyaniline HCl	163.5	eChemPortal

A selection of 3 entries from above:

compound	name	melting point (°C)	via
CCCCC(CC)C(=O)OCC(COC(=O)C(CC)CCCC)(COC(=O)C(CC)CCCC)COC(=O)C(CC)CCCC (configuration not stated)	n/a	9	eChemPortal
O=C(O)c1ccccc1Nc1ccc(SC(F)F)cc1	Anthranilic acid, N-(p-((difluoromethyl)thio)phenyl)-	117	OCHEM
Cc1ccc(N)cc1S(N)(=O)=O	5-Amino-2-methylbenzenesulfonamide	152	OCHEM